Experimental data reported in ChEMBL document CHEMBL3813616, “Discovery of novel 7-azaindoles as PDK1 inhibitors” (Bioorg Med Chem Lett, 2016).

The chains behind the UniProt entries cited, without tags or fusion partners. Where a name states a change or a piece, a line headed by the entry shows the natural chain unless it says otherwise.
UniProt Q02763: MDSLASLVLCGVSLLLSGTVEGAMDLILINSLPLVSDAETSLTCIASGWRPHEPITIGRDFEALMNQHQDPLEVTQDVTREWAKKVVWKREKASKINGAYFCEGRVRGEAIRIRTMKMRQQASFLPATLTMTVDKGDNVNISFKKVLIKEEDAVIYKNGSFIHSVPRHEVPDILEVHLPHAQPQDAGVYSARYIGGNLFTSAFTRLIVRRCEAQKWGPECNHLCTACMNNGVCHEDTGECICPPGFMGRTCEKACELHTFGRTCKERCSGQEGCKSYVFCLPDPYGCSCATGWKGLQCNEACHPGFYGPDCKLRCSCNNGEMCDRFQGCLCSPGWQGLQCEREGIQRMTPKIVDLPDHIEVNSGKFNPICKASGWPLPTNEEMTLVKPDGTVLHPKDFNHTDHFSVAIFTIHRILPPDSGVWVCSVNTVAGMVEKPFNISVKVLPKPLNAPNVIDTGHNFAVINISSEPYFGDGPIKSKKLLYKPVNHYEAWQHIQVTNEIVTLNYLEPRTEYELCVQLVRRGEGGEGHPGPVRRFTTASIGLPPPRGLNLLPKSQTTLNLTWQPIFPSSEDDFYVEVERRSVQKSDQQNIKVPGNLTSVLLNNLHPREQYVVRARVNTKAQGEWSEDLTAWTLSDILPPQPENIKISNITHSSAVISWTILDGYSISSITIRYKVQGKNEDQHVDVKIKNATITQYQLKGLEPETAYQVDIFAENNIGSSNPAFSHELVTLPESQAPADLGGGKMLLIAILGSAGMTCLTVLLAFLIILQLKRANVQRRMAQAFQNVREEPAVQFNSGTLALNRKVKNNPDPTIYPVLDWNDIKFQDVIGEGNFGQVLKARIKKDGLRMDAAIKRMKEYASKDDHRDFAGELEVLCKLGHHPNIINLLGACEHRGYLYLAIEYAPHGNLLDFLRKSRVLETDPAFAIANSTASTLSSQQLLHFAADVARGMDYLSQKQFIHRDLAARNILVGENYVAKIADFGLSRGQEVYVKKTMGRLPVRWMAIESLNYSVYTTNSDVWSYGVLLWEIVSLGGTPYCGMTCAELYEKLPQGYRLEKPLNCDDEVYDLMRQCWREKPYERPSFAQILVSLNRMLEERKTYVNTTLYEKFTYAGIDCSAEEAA

Assays:
[1] = target: Angiopoietin-1 receptor (Homo sapiens) (UniProt Q02763); experiment: Inhibition of human TIE2 (771 to 1124 residues) assessed as enzyme activity at 1 uM using 33P ATP by radioactive filter binding assay; set-up: scale not given: the % may be the effect or the level left
MAPK3 (ERK1) = experiment: Inhibition of human MAPK3 (2 to 379 residues) assessed as enzyme activity at 1 uM using 33P ATP by radioactive filter binding assay; set-up: scale not given: the % may be the effect or the level left
[2] = target: Tyrosine-protein kinase SYK (Homo sapiens) (UniProt P43405); experiment: Inhibition of human SYK (1 to 635 residues) assessed as enzyme activity at 1 uM using 33P ATP by radioactive filter binding assay; set-up: scale not given: the % may be the effect or the level left
[3] = Efflux ratio of permeability from basolateral to apical over apical to basolateral side in human Caco2 cells; format: ADME, cell-based; conditions: caco-2

For Nc1nccc(-c2c[nH]c3ncccc23)n1 [MERIOLIN 1], which Activity [1] is on record?
Its Activity is 19%.

And the Activity (MAPK3 (ERK1))?
Its Activity is -19%.

With CCCCc1cc(-c2c[nH]c3ncccc23)nc(N)n1 as the compound, how does the Activity (MAPK3 (ERK1)) read?
Its Activity is -5%.

Which results are given for CCc1cc(-c2c[nH]c3ncc(-c4cnn(C5CCNCC5)c4)cc23)nc(N)n1?
Activity [2]: 21%; Ratio [3]: 0.6; Activity (MAPK3 (ERK1)): -21%
